For one compound, IC50 results are on record in ChEMBL document CHEMBL2390918, “Cinnamides as selective small-molecule inhibitors of a cellular model of breast cancer stem cells” (Bioorg Med Chem Lett, 2013).

Sequences of proteins named here, by UniProt entry; tags and fusion partners are left off. A change or cut given only in a name is not applied to a line headed by its entry.
UniProt P25105: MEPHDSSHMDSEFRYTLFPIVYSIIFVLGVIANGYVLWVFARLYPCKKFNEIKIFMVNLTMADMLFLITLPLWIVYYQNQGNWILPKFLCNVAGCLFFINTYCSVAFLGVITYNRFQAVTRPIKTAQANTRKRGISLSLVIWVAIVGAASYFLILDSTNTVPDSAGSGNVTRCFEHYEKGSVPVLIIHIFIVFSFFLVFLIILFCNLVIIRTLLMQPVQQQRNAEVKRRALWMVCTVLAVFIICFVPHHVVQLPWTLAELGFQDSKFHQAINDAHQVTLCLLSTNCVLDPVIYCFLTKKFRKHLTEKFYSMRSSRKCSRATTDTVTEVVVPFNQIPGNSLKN

The assay addresses Platelet-activating factor receptor (Homo sapiens, UniProt P25105).

As for `CCCCCCCCCCCCCCCCOC[C@H](COP(=O)([O-])OCC[N+](C)(C)C)OC(C)=O`, it took 0.28 nM to reach half-maximal inhibition (IC50).
